In one experiment the target is mGlu3 (Homo sapiens, UniProt Q14832). As to conditions: mGlu3 IC50 vs mGlu5 EC50.
In a further experiment the target is rat mGlu5 receptors (Rattus norvegicus, UniProt P31424). Nature of the experiment: 'triple add' calcium mobilization assay, mGlu5 PAM/NAM/agonist modes. Format: cell-based. To be noted: dihydro analogue 4 vs corresponding analogue 3. For orientation: Calcium assays in cells follow changes in intracellular calcium, usually with a dye or a luminescent sensor.

By UniProt entry, the sequences of proteins in these tests, tags left out. Residues count along the entry.
UniProt Q14832, 23-879: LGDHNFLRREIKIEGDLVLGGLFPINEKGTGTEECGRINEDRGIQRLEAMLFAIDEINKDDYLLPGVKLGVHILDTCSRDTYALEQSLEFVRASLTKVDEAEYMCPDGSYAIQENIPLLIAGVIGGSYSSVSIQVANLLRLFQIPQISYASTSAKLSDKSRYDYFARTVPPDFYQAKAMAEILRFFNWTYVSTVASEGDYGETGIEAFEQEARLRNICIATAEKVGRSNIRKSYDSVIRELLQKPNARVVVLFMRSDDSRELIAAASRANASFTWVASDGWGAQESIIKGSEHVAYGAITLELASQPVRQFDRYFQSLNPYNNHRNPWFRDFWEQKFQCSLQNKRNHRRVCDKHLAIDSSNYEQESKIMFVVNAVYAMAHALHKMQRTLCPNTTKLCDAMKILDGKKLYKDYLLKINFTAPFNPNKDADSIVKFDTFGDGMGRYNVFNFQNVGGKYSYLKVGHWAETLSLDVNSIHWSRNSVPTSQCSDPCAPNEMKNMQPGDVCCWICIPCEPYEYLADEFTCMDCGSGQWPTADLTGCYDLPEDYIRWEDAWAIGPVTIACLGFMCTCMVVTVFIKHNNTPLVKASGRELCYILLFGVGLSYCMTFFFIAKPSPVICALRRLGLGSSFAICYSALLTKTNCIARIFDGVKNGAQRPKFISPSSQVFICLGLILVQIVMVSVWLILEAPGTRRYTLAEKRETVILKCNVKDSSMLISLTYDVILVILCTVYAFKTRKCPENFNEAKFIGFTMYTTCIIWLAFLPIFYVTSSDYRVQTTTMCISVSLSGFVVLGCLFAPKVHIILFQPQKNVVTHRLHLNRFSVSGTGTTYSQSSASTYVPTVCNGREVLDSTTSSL
UniProt P31424, 21-1203: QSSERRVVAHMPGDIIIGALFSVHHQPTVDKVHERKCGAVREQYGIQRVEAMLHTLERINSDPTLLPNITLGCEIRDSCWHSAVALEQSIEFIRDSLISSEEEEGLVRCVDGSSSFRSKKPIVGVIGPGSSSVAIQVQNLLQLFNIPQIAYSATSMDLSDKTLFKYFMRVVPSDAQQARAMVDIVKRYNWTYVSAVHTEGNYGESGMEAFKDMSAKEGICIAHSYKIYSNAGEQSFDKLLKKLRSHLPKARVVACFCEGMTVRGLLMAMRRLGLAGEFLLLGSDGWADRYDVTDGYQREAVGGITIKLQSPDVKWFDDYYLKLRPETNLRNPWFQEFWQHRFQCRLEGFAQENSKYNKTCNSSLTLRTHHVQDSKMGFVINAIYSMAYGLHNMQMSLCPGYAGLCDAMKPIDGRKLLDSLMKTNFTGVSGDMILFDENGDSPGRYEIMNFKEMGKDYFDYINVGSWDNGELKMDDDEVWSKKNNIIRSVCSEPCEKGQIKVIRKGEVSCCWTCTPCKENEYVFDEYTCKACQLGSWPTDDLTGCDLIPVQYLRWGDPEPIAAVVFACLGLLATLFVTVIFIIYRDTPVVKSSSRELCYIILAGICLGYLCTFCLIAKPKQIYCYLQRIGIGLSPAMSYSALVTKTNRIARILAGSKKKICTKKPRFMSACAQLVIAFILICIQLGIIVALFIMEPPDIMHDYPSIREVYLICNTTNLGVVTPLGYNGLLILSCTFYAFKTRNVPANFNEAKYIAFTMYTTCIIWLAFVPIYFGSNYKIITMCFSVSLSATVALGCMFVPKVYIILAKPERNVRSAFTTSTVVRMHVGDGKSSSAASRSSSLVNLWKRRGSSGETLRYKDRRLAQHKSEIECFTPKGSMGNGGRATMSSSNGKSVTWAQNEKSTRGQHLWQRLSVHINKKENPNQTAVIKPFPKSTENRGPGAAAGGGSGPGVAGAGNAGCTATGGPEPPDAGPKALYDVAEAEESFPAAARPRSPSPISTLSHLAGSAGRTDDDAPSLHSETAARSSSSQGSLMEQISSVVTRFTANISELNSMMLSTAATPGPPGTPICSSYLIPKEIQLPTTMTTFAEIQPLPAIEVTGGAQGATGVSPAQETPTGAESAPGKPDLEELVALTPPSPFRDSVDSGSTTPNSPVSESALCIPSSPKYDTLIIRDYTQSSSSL

As to `O=C1N(c2ccc(F)cc2)CCc2nc(COc3ccccc3)cn21` [4a], the “functional selectivity for mGlu5 (vs mGlu3)” value on mGlu3 was ~ 3 fold. Also, the “fold increase in mGlu5 potency vs series 3 counterpart” value on rat mGlu5 receptors is given as ~ 3.5 fold.
